Assay results: US9108949B2, “Compounds and methods of prophylaxis and treatment regarding nicotinic receptor antagonists” (dated 2015)

By UniProt entry, the sequences of proteins in these tests, tags left out. Residues count along the entry.
UniProt P09483, 31-630 limits assumed: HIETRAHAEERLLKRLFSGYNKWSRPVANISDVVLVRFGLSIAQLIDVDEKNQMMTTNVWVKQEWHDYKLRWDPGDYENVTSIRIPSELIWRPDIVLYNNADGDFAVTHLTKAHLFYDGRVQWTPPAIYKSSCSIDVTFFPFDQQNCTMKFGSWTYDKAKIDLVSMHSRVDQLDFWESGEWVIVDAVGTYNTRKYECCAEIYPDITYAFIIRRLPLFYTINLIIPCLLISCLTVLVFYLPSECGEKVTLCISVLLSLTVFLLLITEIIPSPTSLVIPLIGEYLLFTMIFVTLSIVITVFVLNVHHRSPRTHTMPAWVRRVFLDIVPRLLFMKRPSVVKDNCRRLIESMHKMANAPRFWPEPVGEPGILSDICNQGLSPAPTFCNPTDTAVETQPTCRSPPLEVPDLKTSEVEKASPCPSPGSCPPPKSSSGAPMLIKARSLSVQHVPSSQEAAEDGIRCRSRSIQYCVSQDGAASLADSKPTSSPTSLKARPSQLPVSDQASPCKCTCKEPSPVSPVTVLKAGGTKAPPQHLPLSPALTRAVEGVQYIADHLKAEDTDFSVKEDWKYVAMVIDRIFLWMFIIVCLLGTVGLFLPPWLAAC
UniProt P12390, 25-500 limits assumed: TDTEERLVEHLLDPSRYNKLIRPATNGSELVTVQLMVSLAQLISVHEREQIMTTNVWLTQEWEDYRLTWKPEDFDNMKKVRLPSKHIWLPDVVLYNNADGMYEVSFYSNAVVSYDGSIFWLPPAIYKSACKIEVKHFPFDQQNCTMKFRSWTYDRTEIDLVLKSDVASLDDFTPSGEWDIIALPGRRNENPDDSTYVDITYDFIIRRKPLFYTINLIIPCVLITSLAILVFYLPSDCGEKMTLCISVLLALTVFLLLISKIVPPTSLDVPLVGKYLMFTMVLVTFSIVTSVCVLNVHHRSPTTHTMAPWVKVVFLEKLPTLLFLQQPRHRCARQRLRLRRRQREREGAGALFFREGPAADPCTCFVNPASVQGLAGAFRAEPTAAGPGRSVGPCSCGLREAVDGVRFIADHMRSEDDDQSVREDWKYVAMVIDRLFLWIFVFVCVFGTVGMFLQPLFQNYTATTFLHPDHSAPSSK

How the values were obtained:
neuronal α4β2 nAChRs = neuronal α4β2 nAChRs (Rattus norvegicus, UniProt P09483+P12390); assay: α4β2 receptor binding on rat cortical membranes with [3H]epibatidine; conditions: at 10 1M
[1] = Blood brain barrier penetration after cassette dosing in mice; conditions: cassette dosing 10 mg/kg ip, male C57Bl/6 mice
[2] = tested on: seizure induced by the nerve agent diisopropylfluorophosphate (DFP); assay: DFP toxicity animal model, anti-seizure activity

CCCc1c(C(=O)NC2CCN(Cc3ccccc3)CC2)cnn1-c1ccccc1
binding to the neuronal α4β2 (neuronal α4β2 nAChRs): 1.3%
area under the curve (AUC) ratio of brain to plasma [1]: 3.1
concentration in brain [1]: 9 µM
Normalized % neuroprotection (antagonism of DFP-induced seizure-like behaviors) ([2]; compared with DFP controls, over a 2 h period post-injection): 91.2%
Seizure score (mean ± SD) ([2]; pretreatment before DFP, 2 h period post-injection): 0.8 ± 1.3
Normalized % seizure ([2]; relative to DFP controls): 8.8%
